# Patent US11285128B2, “Homogenous antibody drug conjugates via enzymatic methods” (CSPC Megalith Biopharmaceutical Co., Ltd., priority 2014, dated 2022)
# System: SK_Ov3 xenograft
# Experiment: In vivo efficacy in SK_Ov3 xenograft mice
# Conditions: SK_Ov3 xenografts, 3 weekly doses of 15 mg/kg
substance,measurement,value
TDM-1,tumor response,showed efficacy
